Biological target: T1, rat pancreas (3H-CCK-8-(SO3 H) receptor binding) (Rattus norvegicus, UniProt P30551)
T1 construct: pancreas approximately 0.100 mg protein in 1 mL final volume; from tissue; host or cells: rat pancreas membrane homogenate
Assay: In vitro receptor binding assay, 3H-CCK-8-(SO3H), rat pancreas homogenate
Conditions: 3H-CCK-8-(SO3H) 0.15 nM, 30 min at 25° C., read-out: Rate Pancreas IC50 (concentration to inhibit 50% of specific 3H-CCK-8-(SO3H) binding)
Protocol: Frozen bovine striatum (approx. 5 g) or fresh rat pancreas (approx. 5 g) cleaned of fat and extraneous tissue were homogenized in HEPES buffer #1 (10 mM HEPES+130 mM NaCl+5 mM MgCl2, pH 7.4) using 35 parts buffer per 1 part tissue on a wet weight/volume basis (approx. 175 mL). The tissue was homogenized 2×for approx. 15 sec. at 0° C. using a Polytron homogenizer at a setting of 6. The tissue was isolated by centrifugation at 48,000× g for 10 min at 0° C. The resulting tissue pellet was resuspended in HEPES buffer #2 (10 mM HEPES+130 mM NaCl+5 mM MgCl2 +1 mg/L phenylmethanasulfonyl fluoride (PMSF)+200 mg/L Bacitracin): 1 part striatal tissue (original wet weight) per 80 parts buffer and 1 part pancreas tissue (original wet weight) per 500 to 1000 parts buffer.
Incubation was initiated by combining various concentrations of native CCK-8 or peptides of the invention with ^3 H-CCK-8-(SO3 H) (final conc.=0.15 nM) and tissue homogenate (striatum approximately 0.26 mg protein in 2 mL final volume; pancreas approximately 0.100 mg protein in 1 mL final volume). […] The vials were shaken overnight and then counted using a liquid scintillation spectrometer. Non-specific binding was determined in the presence of 1 micromolar native CCK-8 and subtracted from all samples to determine specific binding. […]

Amino acid sequences for entries named in this document (tags omitted).
UniProt P30551, whole entry: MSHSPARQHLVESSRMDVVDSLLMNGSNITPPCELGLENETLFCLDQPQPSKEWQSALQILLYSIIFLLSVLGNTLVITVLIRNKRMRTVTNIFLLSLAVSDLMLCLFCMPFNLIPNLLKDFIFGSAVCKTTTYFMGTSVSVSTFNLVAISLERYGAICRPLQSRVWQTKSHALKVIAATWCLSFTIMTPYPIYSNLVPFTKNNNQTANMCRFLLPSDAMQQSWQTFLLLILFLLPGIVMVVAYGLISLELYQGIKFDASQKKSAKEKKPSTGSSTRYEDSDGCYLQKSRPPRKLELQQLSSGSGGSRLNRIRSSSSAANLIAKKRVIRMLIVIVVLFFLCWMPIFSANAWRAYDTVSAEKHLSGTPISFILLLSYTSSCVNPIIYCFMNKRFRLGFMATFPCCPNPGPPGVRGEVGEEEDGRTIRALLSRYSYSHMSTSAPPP

## CSCC[C@H](NC(=O)[C@H](Cc1ccc(CCC(=O)O)cc1)NC(C)=O)C(=O)NCC(=O)N[C@@H](Cc1c[nH]c2ccccc12)C(=O)N[C@@H](CCSC)C(=O)N[C@@H](CC(=O)O)C(=O)N[C@@H](Cc1ccccc1)C(N)=O [Example 51, AC-Phe(4-CH2 CH2 COOH)-Met-Gly-Trp-Met-Asp-Phe-NH2]
  IC50: 390 nM

Source: US5508437A, “Analogs of tyrosine sulfate or tyrosine phosphate containing peptides” (Hoffmann-La Roche Inc., priority 1993, dated 1996)
